Results taken from ChEMBL document CHEMBL1131565, “Aminopyrimidines with high affinity for both serotonin and dopamine receptors” (J Med Chem, 1998).

Target: 5-hydroxytryptamine receptor 1A (Rattus norvegicus) (UniProt P19327)
Test: Intrinsic agonist activity at 5-HT1A receptors was measured in vivo by measuring changes in 5-HT levels after administration of compound by observing accumulation of the 5-HT […] 5-hydroxytryptophan (5-HTP) after administration of a 10 mg/k g ip

- Control: 57%
Compound: c1ccc(N2CCN(CC[C@H]3CC[C@H](Nc4ncccn4)CC3)CC2)cc1
